Experimental data taken from patent US20030157026A1, “Photodynamic diagnosis and therapy for insulin-dependent diabetes mellitus” (priority 2001, published 2003).

Columns and labels:
[1] = tested on: BB rats with onset of IDDM; assay: Test Example 4: X-ray (0.153 Å) diagnosis and therapy of IDDM in BB rats with the gold complex; settings: 5 mg/kg i.v., 25 KeV
[2] = tested on: macrophages having infiltrated the Langerhans islets; assay: Test Example 2: electron microscopy of gold particles in pancreas sections after i.v. administration to BB rats with onset of IDDM; settings: 5 mg/kg via tail vein, pancreas excised 1 hour after administration

mono-L-aspartyl chlorin e6-gold complex
survival curve compared with untreated control group ([1]; 24 h later X-ray 0.153 Å): evidently prolonged or improved
X-ray absorption image of the pancreas (distribution of the complex) ([1]; 24 h later coherent X-ray 0.153 Å, transcutaneously): accumulated in the Langerhans islets in the pancreas
uptake of the gold complex (gold particles under electron microscope) [2]: uptaken selectively into the macrophages having infiltrated the Langerhans islets
